Measurements taken from patent US6583108B1, “Human bikunin” (Bayer Corporation, dated 2003).

Legend:
[1] = target: human tissue kallikrein (human) (UniProt P06870); test: enzyme inhibition kinetics, PFR-AMC substrate
[2] = target: bovine pancreatic kallikrein (bovine); test: enzyme inhibition kinetics, PFR-AMC substrate
bovine trypsin (bovine) [3] = target: bovine trypsin (bovine) (UniProt P00760); test: enzyme inhibition kinetics
[4] = target: bovine chymotrypsin (bovine) (UniProt P00766); test: enzyme inhibition kinetics
[5] = target: human tissue kallikrein (human) (UniProt P06870); test: enzyme inhibition kinetics
[6] = target: bovine pancreatic kallikrein (bovine); test: enzyme inhibition kinetics
bovine trypsin (bovine) [7] = target: bovine trypsin (bovine) (UniProt P00760); test: enzyme inhibition kinetics, GPK-AMC substrate
human plasmin (human) = human plasmin (human) (UniProt P00747); test: enzyme inhibition kinetics
human factor Xa (human) = human factor Xa (human) (UniProt P00742); test: enzyme inhibition assay, aprotinin at 31 µM

Row | Substance | pKi [1] | pKi [2] | pKi (bovine trypsin (bovine) [3]) | pKi [4] | pKi [5] | pKi [6] | pKi (bovine trypsin (bovine) [7]) | pKi (human plasmin (human)) | % inhibition (human factor Xa (human)) [%]
1 | aprotinin (Trasylol) | 11.40 | 10.70 | 9.10 | 9.05 | 11.40 | 10.70 | 9.10 |  | 
2 | aprotinin (Trasylol) (other; other documents disagree on this pair) |  |  |  |  |  |  |  | 7.89 | 5

pKi: −log10 of the molar value.
